PMC5741663, “Antimicrobial peptide capsids of de novo design” (Nature Communications, 2017)

System: K. pneumoniae (NCTC 5055)
Assay type: cell-based
Details: NCTC 5055, 24 h
Method: MICs were determined by broth microdilution on different bacteria according to the Clinical and Laboratory Standards Institute. Typically, 100 μL of 0.5–1 × 10^6 CFU mL^–1 of each bacterium in Mueller Hinton media broth (Oxoid) were incubated in 96-well microtitre plates with 100 μL of serial two-fold dilutions of the peptides (from 100 to 0 μM) at 37 °C on a 3D orbital shaker. The absorbance was measured after peptide addition at 600 nm using a Victor 2 plate reader (Perkin-Elmer). MICs were defined as the lowest peptide concentration after 24 h at 37 °C.

Q: How did the Minimum inhibitory concentrations turn out when `CCCCCCCCCC(=O)N[C@@H](Cc1c[nH]c2ccccc12)C(=O)N[C@H](CC(N)=O)C(=O)N[C@@H](CC(=O)O)C(=O)N[C@@H]1C(=O)NCC(=O)N[C@@H](CCCN)C(=O)N[C@@H](CC(=O)O)C(=O)N[C@H](C)C(=O)N[C@@H](CC(=O)O)C(=O)NCC(=O)N[C@H](CO)C(=O)N[C@@H]([C@H](C)CC(=O)O)C(=O)N[C@@H](CC(=O)c2ccccc2N)C(=O)O[C@@H]1C` [Daptomycin] was run?
A: Its Minimum inhibitory concentrations is over 50 µM.
